The values below come from patent US20230302083A1, “HIGHLY-NETWORKED C[…] COMPOSITION” (priority 2020, published 2023).

For the assay, the system named is HLA class I alleles. In kind it is cell-based, human.

Consider ILPVSMTK [A3 COVID 4], for which the “50% Experimental Binder” value is on record as “YES”. Take TEILPVSM [B40 COVID 1]: the “50% Experimental Binder” value was “YES”.
